Data as given in PMC3815676 (Journal of immunology (Baltimore, Md. : 1950), 2013).

How the values were obtained:
Format in all cases: cell-based, NOD mouse
[1] = test system: CD4 T cell clone BDC-5.2.9; conditions: 24 h
[2] = test system: BDC-5/S3.4 T cell clone; test: Antigen assay: IFN-γ response of T cell clone
[3] = test system: BDC-9/S3.5 T cell clone; test: Antigen assay: IFN-γ response of T cell clone
[4] = clone (2 × 10^4) with PEC (2.5 × 10^4) and KS20 (1 μg/ml), IFN-γ by ELISA, positive response > 50 ng/ml, representative of two independent experiments

Row | SMILES | EC50 [1] [nM] | IFN-γ response to KS20 [2, 4] | concentration at which the clone responds to KS20 ([2]; data not shown) | IFN-γ response to KS20 [3, 4] | concentration at which the clone responds to KS20 ([3]; data not shown)
1 | CC(C)C[C@H](NC(=O)[C@H](CCCNC(=N)N)NC(=O)[C@H](CCC(N)=O)NC(=O)[C@@H](NC(=O)[C@H](C)NC(=O)[C@@H]1CSSC[C@H](N)C(=O)N[C@@H](CC(N)=O)C(=O)N[C@@H]([C@@H](C)O)C(=O)N[C@@H](C)C(=O)N[C@@H]([C@@H](C)O)C(=O)N1)[C@@H](C)O)C(=O)N[C@@H](C)C(=O)N[C@@H](CC(N)=O)C(=O)N[C@@H](Cc1ccccc1)C(=O)N[C@@H](CC(C)C)C(=O)N[C@H](C(=O)N[C@@H](CCCNC(=N)N)C(=O)N[C@@H](CO)C(=O)N[C@@H](CO)C(=O)O)C(C)C [CS19] | 5 |  |  |  | 
2 | CC(C)C[C@H](NC(=O)[C@H](CCCNC(=N)N)NC(=O)[C@H](CCC(N)=O)NC(=O)[C@@H](NC(=O)[C@H](C)NC(=O)[C@@H]1CSSC[C@H](NC(=O)[C@H](CCCCN)NC(=O)[C@H](CCCNC(=N)N)NC(=O)[C@H](CCCCN)NC(=O)[C@@H](N)CC(=O)O)C(=O)N[C@@H](CC(N)=O)C(=O)N[C@@H]([C@@H](C)O)C(=O)N[C@@H](C)C(=O)N[C@@H]([C@@H](C)O)C(=O)N1)[C@@H](C)O)C(=O)N[C@@H](C)C(=O)N[C@@H](CC(N)=O)C(=O)N[C@@H](Cc1ccccc1)C(=O)N[C@@H](CC(C)C)C(=O)N[C@H](C(=O)N[C@@H](CCCNC(=N)N)C(=O)N[C@@H](CO)C(=O)N[C@@H](CO)C(=O)O)C(C)C [DS23] | 55 |  |  |  | 
3 | CC(C)C[C@H](NC(=O)[C@H](CCCNC(=N)N)NC(=O)[C@H](CCC(N)=O)NC(=O)[C@@H](NC(=O)[C@H](C)NC(=O)[C@@H]1CSSC[C@H](NC(=O)[C@@H](N)CCCCN)C(=O)N[C@@H](CC(N)=O)C(=O)N[C@@H]([C@@H](C)O)C(=O)N[C@@H](C)C(=O)N[C@@H]([C@@H](C)O)C(=O)N1)[C@@H](C)O)C(=O)N[C@@H](C)C(=O)N[C@@H](CC(N)=O)C(=O)N[C@@H](Cc1ccccc1)C(=O)N[C@@H](CC(C)C)C(=O)N[C@H](C(=O)N[C@@H](CCCNC(=N)N)C(=O)N[C@@H](CO)C(=O)N[C@@H](CO)C(=O)O)C(C)C [KS20] | 0.2 | strongly activated | nanomolar concentrations | strongly activated | nanomolar concentrations
4 | CC(C)C[C@H](NC(=O)[C@H](CCCNC(=N)N)NC(=O)[C@H](CCC(N)=O)NC(=O)[C@@H](NC(=O)[C@H](C)NC(=O)[C@@H]1CSSC[C@H](NC(=O)[C@@H](N)CCCCN)C(=O)N[C@@H](CC(N)=O)C(=O)N[C@@H]([C@@H](C)O)C(=O)N[C@@H](C)C(=O)N[C@@H]([C@@H](C)O)C(=O)N1)[C@@H](C)O)C(=O)N[C@@H](C)C(=O)N[C@@H](CC(N)=O)C(=O)N[C@@H](Cc1ccccc1)C(=O)N[C@@H](CC(C)C)C(=O)N[C@H](C(=O)O)C(C)C [KV17] | 10 |  |  |  | 
